{
  "source": "paper PMC3989380",
  "origin": "cited, not measured here",
  "key": {"[1]": {"biological_target": "Connexin 32 (rCx32p216-230) (Rattus norvegicus) (UniProt P08033)"}, "[2]": {"biological_target": "Connexin 50 (Cx50p141-166) (Homo sapiens) (UniProt P48165)"}, "[3]": {"biological_target": "Connexin 44 (Cx44p132-153) (Ovis aries) (UniProt Q9TU17)"}, "[4]": {"biological_target": "Connexin 44 (Cx44p132-153) (Ovis aries) (UniProt Q9TU17)", "remark": "listed apart in the source"}, "[5]": {"biological_target": "Connexin 50 (Cx50p141-166) (Homo sapiens) (UniProt P48165)", "remark": "listed apart in the source"}, "[6]": {"biological_target": "Connexin 43 (Cx43p136-158) (Homo sapiens) (UniProt P17302)", "experiment": "dansylated CaM fluorescence"}},
  "note": "Like-named read-outs stand apart in the source and are kept apart here.",
  "data": [
    {"substance": "Calmodulin (from UniProt P0DP23)", "values": [
      {"measurement": "Kd", "setting": "[1]", "value": 2100, "unit": "nM"},
      {"measurement": "Kd", "setting": "[2]", "value": "> 8000", "unit": "nM"},
      {"measurement": "Kd", "setting": "[3]", "value": 49, "unit": "nM"},
      {"measurement": "Kd", "setting": "[4]", "value": "> 5000", "unit": "nM"},
      {"measurement": "Kd", "setting": "[5]", "value": 4.9, "unit": "nM"},
      {"measurement": "Kd", "setting": "[6]", "value": 860, "unit": "nM"}
    ]}
  ]
}
